The assay deals with HsAPT1 and HsAPT2 in intact U-2 OS cells. Nature of the assay: Intact mammalian cell labeling, in-gel fluorescence. In kind it is cell-based, human.

As for fluorophosphonate rhodamine, the “Labeling of HsAPT1 and HsAPT2 in intact U-2 OS cells” value is “did not significantly label any species”.

Values taken from article PMC5783350, “Development of an activity-based probe for acyl-protein thioesterases” (PLoS ONE, 2018).
